Earlier results on 1 substance are cited in patent US8415152B2, “Therapeutical composition containing dentritic cells and use thereof” (Helmholtz-Zentrum für Infektionsforschung GmbH, priority 2003, dated 2013).

The conditions of this data set: Deiters et al. 2003; cited from earlier work.

For “macrophage activating lipopeptide-2 [MALP-2, reference compound]”, the “Pyrogenicity” value was “less pyrogenic then LPS”.
